Experimental data from patent US9012471B2, “Glucose metabolism modulating compounds” (The Trustees of Columbia University in the City of New York, priority 2008, dated 2015).

What was measured:
Lewis rats [1] = test: Dopamine content of brain and pancreas tissue by ELISA after TBZ; assay type: in vivo, rat; conditions: 1.5 mg/Kg i.v., one hour after injection
Procedure: Anaesthetized rats received an intravenous injection of TBZ and were sacrificed one hour later. Euthanasia was performed by exsanguination of the anesthetized animal. Brain and pancreas were harvested as quickly as possible and frozen at −80° C. until use. Frozen tissue was pulverized in a liquid nitrogen-cooled mortar and extracted in 0.01 N hydrochloric acid (HCl). The tissue extract was centrifuged at 10,000×g at 4° C. to remove debris and the total protein was estimated by reading the absorbance at 280 nm. The concentration of dopamine in the extract was estimated using an ELISA kit from Rocky Mountain Diagnostics (Colorado Springs, Colo.) as per the manufacturer's instructions and normalized to the extract protein concentration.

Lewis rats [2] = test: Plasma insulin and glucagon during IPGTT; assay type: in vivo, rat
Procedure: The fasting blood glucose (BG) levels of the rats were measured using an Accu-Check blood glucose monitoring system (Roche Diagnostics, Sommerville, N.J.). IPGTT was performed in 6-hour fasting anaesthetized animals as previously described ([…], et al. 2001). Briefly, after baseline BG measurements, animals received an I.P. injection of 2 grams of glucose/kg body weight. To minimize stress during the procedure, rats were handled by the same operator during acclimatization and later during weighing and IPGTT. Blood samples (50 μl or 150 μl) were collected at baseline and then again 15, 30, 60, 90, and 120 minutes following I.P. injection of glucose. Blood glucose concentrations were measured immediately on these samples and the remainder processed. Plasma was immediately separated by centrifugation at 3,000×g for 15 minutes and then stored at -80° C. until analysis. Insulin and glucagon concentration measurements in rat plasma were performed by ELISA as per the manufacturer's instructions using kits from Linco Research Inc. (St. Charles, Mich.) and Alpco Diagnostics (Salem, N.H.), respectively. To validate the test, saline injections were performed by the same method. […] The area under the insulin, glucagon and IPGTT glucose concentration×time curve (AUC IPGTT) was calculated by the trapezoidal rule.

How did the “dopamine content of pancreas” value (Lewis rats [1]) turn out when `COc1cc2c(cc1OC)C1CC(=O)C(CC(C)C)CN1CC2` (stereo not drawn) [TBZ, tetrabenazine] was run?
Its value is “significantly reduced”.

What about the “plasma insulin amounts after glucose challenge relative to vehicle-treated controls” value (Lewis rats [2]; chronic low doses of TBZ (0.1 mg/Kg body weight/day x 5 days)) of the same compound?
The value was “significantly greater”.

And the “plasma insulin amounts after glucose challenge relative to vehicle-treated controls” value (Lewis rats [2]; single dose of TBZ)?
Its value is “significantly greater”.
